Laboratory results reported in PMC3066655 (Journal of medicinal chemistry, 2011).

Biological target: T1, σ2 receptor (Rattus norvegicus, UniProt Q5U3Y7)
T1 sequence (Q5U3Y7 1-176): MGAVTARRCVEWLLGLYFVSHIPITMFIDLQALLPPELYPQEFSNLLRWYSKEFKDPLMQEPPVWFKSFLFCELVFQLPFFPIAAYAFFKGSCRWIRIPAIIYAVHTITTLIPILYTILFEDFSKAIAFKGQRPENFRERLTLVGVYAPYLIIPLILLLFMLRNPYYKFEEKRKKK
Assay: σ2 receptor binding assay, [3H]-DTG, liver membrane homogenates

Ki: 5.96 µM
SMILES: O=C(NCCCCN1CCN(c2ccccc2OCCF)CC1)c1ccc(-c2ccsc2)cc1 [Compound 20e, 4-(Thiophen-3-yl)-N-(4-(4-(2-(2-fluoroethoxy)phenyl)piperazin-1-yl)butyl)benzamide]
